SMILES strings stand for the structures.

One compound from patent publication US9446039B2, “Aminoheteroaryl compounds as MTH1 inhibitors” (CEMM—FORSCHUNGSZENTRUM FÜR MOLEKULARE MEDIZIN GMBH, priority 2012, dated 2016) can be followed below.

The target in one assay is MTH1 (Homo sapiens, UniProt P36639). The assay can be described thus: MTH1 catalytic assay (luminescence-based, PPi from 8-oxo-dGTP hydrolysis, PPiLight). The following applies: read-out: IC50, inhibition of MTH1 catalytic activity.
In the next assay the test system is ALK. The assay can be described thus: Drug pull-down with immobilized compounds from SH-SY5Y cells, Western blot for ALK. The assay is classed as binding, human. The settings on record: SH-SY5Y lysate. A general note: In western blotting, separated proteins are transferred to a membrane and probed.

With `CC(Oc1cc(-c2cnn(C3CCN(C(=O)CCCCCN)CC3)c2)cnc1N)c1c(Cl)ccc(F)c1Cl` (racemic), on MTH1, the IC50 (commonly the concentration that inhibits the measured activity by half) was 500 nM. Moreover, the “enrichment / binding of ALK isoforms by immobilized compound” value in the assay with ALK was “bind ALK to a lesser extent”.
